Test results published in BindingDB's records for PubMed 10411589 (The University of Queensland, 1999).

The chains behind the UniProt entries cited, without tags or fusion partners.
UniProt P23975, whole entry: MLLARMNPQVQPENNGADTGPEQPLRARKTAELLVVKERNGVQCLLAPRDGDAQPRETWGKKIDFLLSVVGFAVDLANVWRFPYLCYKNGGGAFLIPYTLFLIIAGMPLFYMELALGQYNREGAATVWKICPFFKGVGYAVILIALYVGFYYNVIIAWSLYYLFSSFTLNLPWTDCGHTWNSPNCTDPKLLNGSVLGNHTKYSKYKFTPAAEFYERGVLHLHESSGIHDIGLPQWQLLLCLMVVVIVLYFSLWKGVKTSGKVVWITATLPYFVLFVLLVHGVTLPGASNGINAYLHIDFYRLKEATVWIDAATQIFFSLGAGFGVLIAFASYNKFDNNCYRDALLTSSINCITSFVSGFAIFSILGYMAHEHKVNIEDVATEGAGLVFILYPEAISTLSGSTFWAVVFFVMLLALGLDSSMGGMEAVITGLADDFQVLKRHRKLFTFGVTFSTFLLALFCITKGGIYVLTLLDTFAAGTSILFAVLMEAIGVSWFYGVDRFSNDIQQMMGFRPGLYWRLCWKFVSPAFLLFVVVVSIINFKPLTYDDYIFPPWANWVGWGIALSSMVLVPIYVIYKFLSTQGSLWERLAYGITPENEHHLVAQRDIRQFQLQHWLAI

Biological target: Sodium-dependent noradrenaline transporter (Homo sapiens, UniProt P23975)

Ki: 118 nM
SMILES: CN(C)CCCN1c2ccccc2CCc2ccccc21
